## Yeast mating assay 1: variants of the scFv Ab-14

The measurements come from Engelhart et al. 2022 (doi:10.1038/s41597-022-01779-4) through the FLAb antibody collection.

The target is the same throughout: PDVDLGDISGINAS, from the HR2 region of SARS-CoV-2 spike.

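AAYL49 was designed without a model: most single CDR substitutions and a random sample of double and triple ones. The assay is AlphaSeq: two haploid yeast populations carry antibody and antigen on their surface. Pairs that bind mate more often; barcode pairs of the diploids are counted by sequencing. Each replicate has its own calibration line, from reference interactions of the BCL2 family. The assay was run in three technical replicates.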

Each scFv is VH, a 15-residue (Gly4Ser)3 linker, VL, as in the parent Ab-14, and differs from it in the CDRs of the heavy chain only.
VH: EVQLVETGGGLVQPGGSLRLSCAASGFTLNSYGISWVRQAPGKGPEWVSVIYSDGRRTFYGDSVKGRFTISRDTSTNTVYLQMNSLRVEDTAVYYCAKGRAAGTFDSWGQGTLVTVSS
VL: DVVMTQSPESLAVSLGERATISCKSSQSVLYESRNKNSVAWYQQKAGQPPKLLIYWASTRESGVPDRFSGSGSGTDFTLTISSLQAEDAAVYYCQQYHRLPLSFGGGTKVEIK

Each variant is given by its three heavy chain CDRs, as the data file delimits them; those of the parent are GFTLNSYGIS, VIYSDGRRTFYGDSVK, GRAAGTFDS. The read-out is the apparent dissociation constant on a log10 scale (nM): the lower, the stronger. "n.d." marks a missing value. The strain was present, yet no cells mated with the target were sequenced in that replicate, which points to weak or no binding. Empty control strains, which show no peptide, gave a signal in 15% of pairings with library AAYL49; the median was 4.06 and 95% of these signals were weaker than 2.83. No background was subtracted. Also given: how often the same scFv was detected with the empty control strains, with their mean in brackets. In this assay the parent's reference entry averaged 0.65; its copy inside this library read 4.11 (one replicate of three).

CDR-H1 | CDR-H2 | CDR-H3 | log10 Kd, replicates | empty controls
GHTLNSYGIS | VIYSDGRREFYGDSVK | GRAAGQFDS | 2.86 2.06 2.17 | 1 of 9 (4.31)
GFTLNSYGIS | VIYSDGRRTFYGDSVK | GRQAGTDDS | n.d. n.d. n.d. | 1 of 9 (5.54)
GFPLNSYGIS | VIYSDGRRTFYGDSVK | IRAAGTFDC | n.d. n.d. n.d. | 1 of 9 (3.19)
GFTLNSYGIS | VIYSDGRRTFYGDSVK | MCAAGTFDK | 1.27 1.34 1.61 | 1 of 9 (4.11)
GFTLNRYGIT | VIYSDGRRTFYGDSVK | GRAAGTFDS | 1.73 1.94 1.93 | 0 of 9
GFTLNSYGIS | VIYSRGRRTFYGDSVK | YRAAGTRDS | n.d. n.d. n.d. | 4 of 9 (3.88)
GPTLNSYGIS | VIYSDGDRTFYGDSVK | GRAAGTFDH | 4.12 3.43 3.29 | 2 of 9 (4.20)
GFTLNSYGIS | VIYSDGRRTFYGCSVK | GRAAGTVDK | n.d. n.d. 4.02 | 0 of 9
GFTLTSYGIS | VIYSDCRRTFYGDSVK | GRAAYTFDS | n.d. n.d. n.d. | 0 of 9
GFTLDCYGIS | VIYSDGRRTFYCDSVK | GRAAGTFDS | 1.83 1.69 1.87 | 1 of 9 (3.46)
KFTLNSYGIS | VIYSDGRRTFYTDSVK | GRAAGAFDS | n.d. n.d. n.d. | 0 of 9
FFTLNSPGIS | VIYSDGRRTFYGCSVK | GRAAGTFDS | n.d. 3.95 n.d. | 0 of 9
GFTLNSYGIS | VIYDDGRRFFYGDSVK | GRAAGTFDA | n.d. n.d. n.d. | 0 of 9
GFTLNSYGIS | VIYSDGRATKYGDSVK | GRAAGTFDS | 2.42 2.52 2.52 | 1 of 9 (3.31)
GFTLNSYGIS | VIYSDGRRGFYGDSVF | GRANGTFDS | n.d. 3.85 n.d. | 4 of 9 (4.66)
GFTLNSYGIS | VIESDGRRTGYGDCVK | GRAAGTFDS | n.d. 5.42 5.36 | 6 of 9 (3.64)
GFTLNSYGSS | VIYSDGERTFYGDSVK | GRAAGTFDF | n.d. n.d. n.d. | 0 of 9
GFTLNSYGIS | VIYSDGRRVFYGDSHK | GFAAGTFDS | n.d. n.d. n.d. | 0 of 9
GFTLNSYPIS | VIYSDGRRTFFGDSVK | GRAAGTFDS | n.d. n.d. n.d. | 0 of 9
GFRLNSYGES | VIYSDGRRTFYGDSVK | RRAAGTFDS | n.d. n.d. n.d. | 0 of 9
GFTLNSYGIS | VIYSDGRRTFYGDSVK | GRAAGCFPW | 0.11 0.56 0.43 | 1 of 9 (3.83)
GFTLNSYGIS | VIYSDGRRTFYGDSIK | MRAAGTFDS | 2.41 n.d. n.d. | 0 of 9
GFPLNSYVIS | VIYSDGRRTFYGDSLK | GRAAGTFDS | n.d. n.d. n.d. | 2 of 9 (3.66)
GFTQNSYGIS | VIYSDARRTFYGDSVK | GRAAGTFDS | n.d. n.d. n.d. | 0 of 9
GFTVNSYGIS | VIYIDGRRTFYGDSVK | GRAATTFDS | n.d. n.d. n.d. | 0 of 9
GFTLNSYGIP | VIYSDGRRTFYGDSVK | GRAATTFDQ | n.d. n.d. n.d. | 0 of 9
GETLNSYGIS | VIYSDGRRTFYGDSVK | GRAAWTFDS | n.d. n.d. n.d. | 0 of 9
GFTLNSYGIS | VIYSDGRRTKYGDQVK | KRAAGTFDS | 0.54 1.23 2.07 | 1 of 9 (2.30)
GFTLNSYGIS | VIYSDGRRTFYKDSVK | GRAAGGFVS | n.d. 3.07 n.d. | 1 of 9 (2.59)
GFTLNSYGIS | VIYSDGRRTFVGDSVK | GRAAGTFDS | n.d. n.d. n.d. | 0 of 9
GFTLNSYGIS | VIFSNGRRTFYGDSVK | GSAAGTFDS | n.d. n.d. n.d. | 0 of 9
FFTLNSYGIS | VIYSDDRRTFYGDSVK | WRAAGTFDS | n.d. n.d. n.d. | 1 of 9 (4.58)
GFTLNSYGIS | VIYSRGCRTFYSDSVK | GRAAGTFDS | 5.42 n.d. n.d. | 2 of 9 (3.57)
GFTLNSYTIS | VIYSDGRRTFYGDSVK | MRAAGTFDS | 4.54 n.d. n.d. | 3 of 9 (4.58)
GFTLNSYGIS | VITSDGERTFYGDSVK | GRAACTFDS | n.d. n.d. n.d. | 1 of 9 (4.62)
GFTSNSYGIS | VIYSDGRRTFYGSSVK | GRAAGCFDS | n.d. n.d. n.d. | 2 of 9 (4.26)
GFTLNSYGWS | VIYSDGRHTFYGDSVK | GRAAGTFCS | n.d. n.d. n.d. | 0 of 9
GFTLNSYGIS | VIYSPGRRTFAGDSVK | GRAAGTFDS | 6.07 3.73 n.d. | 3 of 9 (4.24)
GFTLNSYGIS | VIYSDGRRTFYGDSVK | GRLAGTVNS | -0.10 0.31 0.04 | 2 of 9 (4.54)
GFTLMSKGIS | VIYSDGRRTFLGDSVK | GRAAGTFDS | 5.72 n.d. 5.03 | 3 of 9 (4.33)

Extract of 7 entries:

{"CDR-H1": "GFTLNSYGWS", "CDR-H2": "VIYSDGRHTFYGDSVK", "CDR-H3": "GRAAGTFCS", "log10 Kd, replicates": "n.d. n.d. n.d.", "empty controls": "0 of 9"}
{"CDR-H1": "GFTLNRYGIT", "CDR-H2": "VIYSDGRRTFYGDSVK", "CDR-H3": "GRAAGTFDS", "log10 Kd, replicates": "1.73 1.94 1.93", "empty controls": "0 of 9"}
{"CDR-H1": "GFTLNSYGIS", "CDR-H2": "VIESDGRRTGYGDCVK", "CDR-H3": "GRAAGTFDS", "log10 Kd, replicates": "n.d. 5.42 5.36", "empty controls": "6 of 9 (3.64)"}
{"CDR-H1": "GFTLNSYGSS", "CDR-H2": "VIYSDGERTFYGDSVK", "CDR-H3": "GRAAGTFDF", "log10 Kd, replicates": "n.d. n.d. n.d.", "empty controls": "0 of 9"}
{"CDR-H1": "GFTLNSYGIS", "CDR-H2": "VIYSDGRRTFYGDSVK", "CDR-H3": "MCAAGTFDK", "log10 Kd, replicates": "1.27 1.34 1.61", "empty controls": "1 of 9 (4.11)"}
{"CDR-H1": "GFTLNSYGIS", "CDR-H2": "VIYSDGRATKYGDSVK", "CDR-H3": "GRAAGTFDS", "log10 Kd, replicates": "2.42 2.52 2.52", "empty controls": "1 of 9 (3.31)"}
{"CDR-H1": "GFTQNSYGIS", "CDR-H2": "VIYSDARRTFYGDSVK", "CDR-H3": "GRAAGTFDS", "log10 Kd, replicates": "n.d. n.d. n.d.", "empty controls": "0 of 9"}